This data set can be described thus: Blood levels after oral gavage. It counts as in vivo. Conditions: adult rats orally gavaged. An excerpt:
In the treatment of certain localized conditions, the degree of hydrophilicity of the CMT can be of lesser importance. […].

Turning to “4-hydroxy-4-de(dimethylamino)tetracycline [CMT-6]”, the Blood levels entry was “no detectable blood levels”.

For the origin of these results see patent EP1296703B1, “NON-ANTIBACTERIAL TETRACYCLINE AS ANTI-FUNGAL AGENTS” (Liu, Yu, priority 2000, dated 2001).
